Source: patent US12042564B2, “Therapeutic solid dosage forms” (CYBIN UK LTD, priority 2020, dated 2024)

System: human liver mitochondrial fraction
Experiment: Intrinsic clearance and half-life in human liver mitochondrial fraction
Assay type: in vitro ADME
Settings: 0.5 mg/mL human liver mitochondrial fraction; 1 μM test compounds, 5 μM Serotonin and Benzylamine controls; replicate 1

`O=C(O)/C=C/C(=O)O.[2H]C([2H])([2H])N(C([2H])([2H])[2H])C([2H])([2H])Cc1c[nH]c2ccccc12` [SPL028viii, (96.7%) α,α,-dideutero-N,N-bis-trideutero-dimethyltryptamine fumarate salt] was tested, and the “Half-life (min) R1” value was 121.4 min.
